Key:
[1] = system: T1, CYP3A; test: Group mean of log10 Km (Km in µM) for porcine hepatic microsomes from 8 male pigs, probe metabolism at 37 °C, LC-MS/MS.; type: biochemical, pig liver microsomes; settings: n = 8
T1 construct: native enzymes in hepatic or intestinal microsomes; probe reaction midazolam 1-hydroxylation

[2] = system: T1, CYP3A; test: Group mean of log10 Km (Km in µM) for porcine hepatic microsomes from 8 female pigs, probe metabolism at 37 °C, LC-MS/MS.; type: biochemical, pig liver microsomes; settings: n = 8
[3] = system: CYP2C; settings: TB 200 µM; inhibitors SFZ 0.5, α-NFV 0.1 (1 µM), QND 0.1, KET 0.3, DDC 20, 8-MPS 1 µM; mean (SD) of 3
[4] = system: CYP2E; test: Incubation with inhibitors: CZ-hydroxylation in porcine hepatic microsomes; type: in vitro ADME, conventional pig; settings: CZ 50 µM; inhibitors SFZ 0.5, α-NFV 0.1 (1 µM), QND 0.1, KET 0.3, DDC 20, 8-MPS 1 µM; mean (SD) of 3
[5] = system: CYP2A; test: Incubation with inhibitors: CM-hydroxylation in porcine hepatic microsomes; type: in vitro ADME, conventional pig; settings: CM 1 µM; inhibitors SFZ 0.5, α-NFV 0.1 (1 µM), QND 0.1, KET 0.3, DDC 20, 8-MPS 1 µM; mean (SD) of 3
[6] = system: CYP3A; test: Incubation with inhibitors: MDZ-hydroxylation in porcine hepatic microsomes; type: in vitro ADME, conventional pig; settings: MDZ 20 µM; inhibitors SFZ 0.5, α-NFV 0.1 (1 µM), QND 0.1, KET 0.3, DDC 20, 8-MPS 1 µM; mean (SD) of 3
[7] = system: CYP1A; test: Incubation with inhibitors: PH-O-deethylation in porcine hepatic microsomes; type: in vitro ADME, conventional pig; settings: PH 20 µM; inhibitors SFZ 0.5, α-NFV 0.1 (1 µM), QND 0.1, KET 0.3, DDC 20, 8-MPS 1 µM; mean (SD) of 3
[8] = target: T2, CYP2D (Sus scrofa, UniProt O46658); test: Incubation with inhibitors: DXM-O-demethylation in porcine hepatic microsomes; type: in vitro ADME, conventional pig; settings: DXM 10 µM; inhibitors SFZ 0.5, α-NFV 0.1 (1 µM), QND 0.1, KET 0.3, DDC 20, 8-MPS 1 µM; mean (SD) of 3
T2 construct: from tissue; host or cells: pig liver microsomes
T2 sequence (O46658 1-500): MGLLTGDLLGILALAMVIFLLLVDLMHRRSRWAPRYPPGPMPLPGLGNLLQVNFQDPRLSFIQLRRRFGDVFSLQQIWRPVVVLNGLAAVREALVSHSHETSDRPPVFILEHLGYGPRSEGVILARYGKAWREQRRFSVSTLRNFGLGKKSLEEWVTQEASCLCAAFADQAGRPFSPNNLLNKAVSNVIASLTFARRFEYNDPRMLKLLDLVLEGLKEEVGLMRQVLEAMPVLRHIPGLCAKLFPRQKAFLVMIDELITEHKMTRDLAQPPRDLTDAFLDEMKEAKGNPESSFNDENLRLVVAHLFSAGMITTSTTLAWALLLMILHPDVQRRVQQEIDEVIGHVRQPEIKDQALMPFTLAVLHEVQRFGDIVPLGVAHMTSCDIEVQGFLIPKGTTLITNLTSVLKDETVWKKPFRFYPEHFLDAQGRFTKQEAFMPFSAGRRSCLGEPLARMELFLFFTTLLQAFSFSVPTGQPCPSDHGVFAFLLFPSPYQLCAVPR

SMILES	log_Km, male [1]	log_Km, female [2]	Ratio of residual activity (substrate + inhibitor versus substrate only), CYP2C TB [3]	Ratio of residual activity (substrate + inhibitor versus substrate only), CYP2E CZ [4]	Ratio of residual activity (substrate + inhibitor versus substrate only), CYP2A CM [5]	Ratio of residual activity (substrate + inhibitor versus substrate only), CYP3A MDZ [6]	Ratio of residual activity (substrate + inhibitor versus substrate only), CYP1A PH [7]	Ratio of residual activity (substrate + inhibitor versus substrate only), CYP2D DXM [8]
Cc1ncc2n1-c1ccc(Cl)cc1C(c1ccccc1F)=NC2 [MDZ, midazolam]	1,3136	1,3339						
C=C[C@H]1C[N@@]2CC[C@H]1C[C@@H]2[C@@H](O)c1ccnc2ccc(OC)cc12 [Quinidine, quinidine]			0.97 (0.052)	1.07(0.044)	1.06 (0.072)	1.26 (0.075)	1.15 (0.016)	0.98 (0.080)

— article PMC6592956, “Characterization of Porcine Hepatic and Intestinal Drug Metabolizing CYP450: Comparison with Human Orthologues from A Quantitative, Activity and Selectivity Perspective” (Scientific Reports, 2019)
